These results are taken from PubChem BioAssay AID429 (Emory University Molecular Libraries Screening Center, 2006).

Only a part is listed here, and it is no random draw. Calls of active or inactive are those of the source.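 How the source made its calls: active means inhibition above 50%; inactive means the rest.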

The target in the assay is Heat shock protein HSP 90-alpha (Homo sapiens) (UniProt P07900). Description: Hsp90 geldanamycin-site probe displacement – cell lysate, fluorescence polarization, NCI-N417 lysate, primary screen (AID 429).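 Further: 0% = tracer plus lysate wells and 100% = tracer alone without lysate.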 Conditions: NCI-N417 lysate Hsp90, Cy3B-geldanamycin FP displacement; at 30 µM; active compounds read high.
For `CN(C)CCOC(=O)C(O)(c1ccccc1)C1CCCCC1` (stereo not drawn), the inhibition was inactive: -4.6%.

Turning to `Cc1ccccc1NP(C)(=O)Nc1ccccc1C`, the inhibition was inactive: -2.41%.

For `CP(=O)(Nc1ccc2c(c1)OCCO2)Oc1ccccc1` (stereo not drawn), the inhibition is inactive: 4.05%.

As to `CCOP(C)(=S)SCC(=O)NC(C)(CC)C(=O)O` (stereo not drawn), the inhibition is inactive: 3.02%.

In the case of `CP(=O)(Nc1ccccc1F)Oc1ccccc1` (stereo not drawn), the inhibition is inactive: -3.72%.

Regarding `Cc1nc2ccc3ccccc3c2o1.O=[N+]([O-])c1cc([N+](=O)[O-])c(O)c([N+](=O)[O-])c1`, the inhibition was inactive: 10.6%.

Consider `COc1ccccc1OP(C)(=O)Nc1ccc(C)c(C)c1` (stereo not drawn), for which the inhibition was inactive: -0.8%.

As for `CP(=O)(Nc1ccccn1)Oc1ccccc1` (stereo not drawn), the inhibition was inactive: 0.8%.

Take `CP(=O)(Oc1ccccc1)N1CCOC1=O` (stereo not drawn): the inhibition was inactive: -7.71%.

Consider `COc1ccccc1OP(C)(=O)Nc1c(C)n(C)n(-c2ccccc2)c1=O` (stereo not drawn), for which the inhibition is inactive: 3.44%.

Turning to `N#[O+].[C-]#N.[C-]#N.[C-]#N.[C-]#N.[C-]#N.[Fe+2].[Na+].[Na+]`, the inhibition is active: 96.5%.

On to `CCN(CC)CC(O)COC(=O)C(O)(c1ccccc1)C1CCCCC1` (stereo not drawn), for which the inhibition is inactive: -0.44%.

Turning to `CP(=S)(Nn1cnnc1)Oc1ccccc1` (stereo not drawn), the inhibition was inactive: -3.98%.

For `CCOP(C)(=S)SCC(=O)NC(C)C(=O)O` (stereo not drawn), the inhibition is inactive: -0.45%.

Turning to `COc1ccccc1OP(C)(=O)Nc1ccc(C)cc1` (stereo not drawn), the inhibition is inactive: 0.4%.

As to `Cc1ccc(NP(C)(=O)Oc2ccccc2)c(C)c1` (stereo not drawn), the inhibition is inactive: -3.04%.

As for `Cc1ccc(C)c(NP(C)(=O)Oc2ccccc2)c1` (stereo not drawn), the inhibition was inactive: -1.17%.

Consider `Cc1nc2ccc3ccccc3c2s1.O=[N+]([O-])c1cc([N+](=O)[O-])c(O)c([N+](=O)[O-])c1`, for which the inhibition was inactive: -5.16%.
